The target of the experiment is human mGluR5d (Homo sapiens, UniProt P41594). The experiment is described as follows: FLIPR assay, mGluR5 antagonism (intracellular calcium mobilization). The settings on record: read-out: FLIPR hmGluR5d; cells expressing human mGluR5d; fluo-3 calcium signal. The source says:
Functional Assessment of mGluR5 Antagonism in Cell Lines Expressing mGluR5D
The properties of the compounds of the invention can be analyzed using standard assays for pharmacological activity. Examples of glutamate receptor assays are well known in the art as described in for example Aramori et al., Neuron 8:757 (1992), Tanabe et al., Neuron 8:169 (1992), Miller et al., J. Neuroscience 15: 6103 (1995), Balazs, et al., J. Neurochemistry 69:151 (1997). The methodology described in these publications is incorporated herein by reference. […]
Cells expressing human mGluR5d as described in WO97/05252 cultured in a mixture of high glucose DMEM with Glutamax (31966-021) (500 mL), 10% dialyzed fetal bovine serum (Hyclone #SH30079.03) (56 mL), 200 μg/mL Hygromycin B (Invitrogen 45-0430, 50 mg/mL)(2.2 mL), 200 μg/mL Zeocin (Invitrogen #R250-01; 100 mg/mL)(1.1 mL) are seeded at a density of 100,000 cells per well on collagen coated clear bottom 96-well plates with black sides and cells were allowed to adhere over night before experiments. […] The fluorescence signal is sampled 50 times at 1-second intervals followed by 3 samples at 5-second intervals immediately after each of the two additions. Responses are measured as the difference between the peak heights of the response to agonist, less the background fluorescence within the sample period. […]

Amino acid sequences for entries named in this document (tags omitted). Residues count along the entry.
UniProt P41594, 21-942 isoform 3 limits assumed: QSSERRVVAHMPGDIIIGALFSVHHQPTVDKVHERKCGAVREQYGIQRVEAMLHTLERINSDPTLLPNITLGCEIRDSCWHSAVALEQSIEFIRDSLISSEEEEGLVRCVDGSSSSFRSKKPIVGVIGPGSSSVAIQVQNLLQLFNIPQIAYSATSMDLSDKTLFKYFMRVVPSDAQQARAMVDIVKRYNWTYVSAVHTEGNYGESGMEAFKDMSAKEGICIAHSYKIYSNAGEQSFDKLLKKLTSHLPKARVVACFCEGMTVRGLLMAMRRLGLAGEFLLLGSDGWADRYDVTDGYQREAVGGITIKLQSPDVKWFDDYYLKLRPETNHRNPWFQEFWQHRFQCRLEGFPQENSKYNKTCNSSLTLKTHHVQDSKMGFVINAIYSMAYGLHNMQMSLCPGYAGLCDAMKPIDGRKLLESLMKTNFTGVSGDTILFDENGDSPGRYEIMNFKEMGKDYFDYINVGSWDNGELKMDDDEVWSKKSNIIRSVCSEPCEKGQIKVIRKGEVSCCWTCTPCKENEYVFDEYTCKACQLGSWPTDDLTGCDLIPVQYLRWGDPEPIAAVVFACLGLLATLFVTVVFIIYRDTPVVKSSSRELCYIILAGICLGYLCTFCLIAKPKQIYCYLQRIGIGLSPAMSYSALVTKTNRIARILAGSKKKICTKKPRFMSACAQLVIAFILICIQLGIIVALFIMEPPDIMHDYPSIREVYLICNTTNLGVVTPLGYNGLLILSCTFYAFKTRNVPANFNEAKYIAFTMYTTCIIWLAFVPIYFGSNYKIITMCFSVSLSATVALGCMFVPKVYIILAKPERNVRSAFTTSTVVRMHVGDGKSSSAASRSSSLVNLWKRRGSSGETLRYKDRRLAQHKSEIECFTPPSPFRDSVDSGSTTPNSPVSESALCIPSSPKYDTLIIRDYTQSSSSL

With `Cn1c(-c2cc[nH]c(=O)c2)nnc1N1[C@@H](c2cc(-c3cccc(Cl)c3)on2)C[C@H]2C[C@H]21`, the IC50 turned out to be 33 nM.

These data come from patent publication US20090111820A1, “FUSED PYRROLIDINE 1,2,4-TRIAZOLE DERIVATIVES AS MODULATORS OF MGLUR5” (priority 2007, published 2009).
